In patent US20240208989A1, “NOVEL 12-EPI-MUTILIN COMPOUNDS AND USES THEREOF” (NABRIVA THERAPEUTICS GMBH, priority 2021, published 2024):

Key:
[1] = test system: cryopreserved primary mouse hepatocytes; test: Metabolic stability against primary hepatocytes; type: in vitro ADME; settings: 1 μg/mL, 37° C., 4 hours, remaining parent compound
[2] = test system: cryopreserved primary human hepatocytes; test: Metabolic stability against primary hepatocytes; type: in vitro ADME; settings: 1 μg/mL, 37° C., 4 hours, remaining parent compound
[3] = test system: Primary human hepatocytes; test: Cytotoxicity, human hepatocyte assay (ATPlite); type: cell-based; settings: 2 hours
Protocol: The cytotoxicity for compounds of the present invention was determined using a human hepatocyte assay. Primary human hepatocytes were incubated with various test compound concentrations (in triplicate) for 2 hours. Viability of cells is then measured by the luminescence ATPlite detection assay system according to the manufacturer (Perkin Elmer). ATP is a marker for cell viability because it is present in all metabolically active cells and the concentration declines very rapidly when the cells undergo necrosis or apoptosis. The ATPlite assay system is based on the production of light caused by the reaction of ATP with added luciferase and D-luciferin, where the emitted light is proportional to the ATP concentration (within certain limits).

12-epi-12-desvinyl-14-O-[(azepan-4-ylsulfanyl)-acetyl]-12-((E)-2-pyridin-3-yl-ethenyl) mutilin hydrochloride [Example 154 of WO 2015/110481, reference compound]
Metabolic stability against primary hepatocytes [% parent compound] [1]: 0% | Metabolic stability against primary hepatocytes [% parent compound] [2]: 0% | IC50 [3]: < 225 µM
